Reference: article PMC11381339

Molecular target: uL14m, mitoribosome large subunit (mtLSU) marker (human (endogenous in HEK293T)) (UniProt Q6P1L8)
Test: co-sedimentation; 0.3-1 M sucrose gradient of HEK293T mitochondrial extracts prepared in 0.6% digitonin, 100 mM KCl, 20 mM MgCl2, 20 mM HEPES pH 7.4; 152 000 x g, 3 h 10 min, 4 C; 15 fractions, SDS-PAGE and immunoblot

TACO1 (translational activator of the mtDNA-encoded cytochrome c oxidase subunit 1) (from UniProt Q9BSH4 1-297) (natural protein)
portion of TACO1 that co-sediments: < 5%
